Experimental data: WO2011083140A1 (dated 2011)
Like-named read-outs stand apart in the source and are kept apart here.

The chains behind the UniProt entries cited, without tags or fusion partners.
UniProt P61073, whole entry: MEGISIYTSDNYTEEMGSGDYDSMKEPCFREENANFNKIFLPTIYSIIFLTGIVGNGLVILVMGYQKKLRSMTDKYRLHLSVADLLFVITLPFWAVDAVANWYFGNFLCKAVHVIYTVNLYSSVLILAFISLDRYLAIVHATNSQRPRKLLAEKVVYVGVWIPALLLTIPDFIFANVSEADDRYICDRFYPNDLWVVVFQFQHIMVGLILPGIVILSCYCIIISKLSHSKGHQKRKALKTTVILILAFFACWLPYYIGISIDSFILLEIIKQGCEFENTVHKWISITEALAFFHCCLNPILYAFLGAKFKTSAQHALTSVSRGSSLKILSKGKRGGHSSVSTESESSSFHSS

Columns and labels:
Test in all cases: cell-based or functional assay
human CXCR4 (human) [1] = molecular target: human CXCR4 (human) (UniProt P61073)
human CXCR4 (human) [2] = molecular target: human CXCR4 (human) (UniProt P61073); remark: listed apart in the source
human CXCR4 (human) [3] = molecular target: human CXCR4 (human) (UniProt P61073); remark: listed apart in the source

Chemotaxis IC50 (M) +HSA (human CXCR4 (human) [1]): 1.78e-09 M
Chemotaxis IC50 (M) -HSA (human CXCR4 (human) [1]): 2.01e-09 M
Chemotaxis IC50 (M) +HSA (human CXCR4 (human) [2]): 1.7e-09 M
Chemotaxis IC50 (M) -HSA (human CXCR4 (human) [2]): 1.61e-09 M
Chemotaxis Jurkat cells % inhib. (human CXCR4 (human) [2]): 87%
Chemotaxis Jurkat cells IC50 (M) n=1 (human CXCR4 (human) [2]): 3e-09 M
cAMP inhibition assay IC50 (M) n=1 (human CXCR4 (human) [2]): 7.5e-07 M
cAMP inhibition assay IC50 (M) n=2 (human CXCR4 (human) [2]): 7.8e-07 M
Chemotaxis IC50 (M) +HSA (human CXCR4 (human) [3]): 1.52e-09 M
Chemotaxis Jurkat cells % inhib. (human CXCR4 (human) [3]): 94.1%
Reporter assay: competition IC50 (M) +HSA (human CXCR4 (human) [3]): 3.73e-09 M
Reporter assay: competition IC50 (M) -HSA (human CXCR4 (human) [3]): 5.46e-09 M
Substance: MDX-1338 (antibody)
